GIV Gai3 FP – inhibitors of GIV peptide binding to Galpha-i3, primary screen, biochemical, fluorescence polarization, FITC-GIV GBA peptide, rat Galphai3 | 90 min; stronger effect = lower value; scaled: aluminum fluoride 0%, vehicle 100% | AID 1224905, 2016 | 210,000 compounds, 0.42% hits | percent of control (FP), % (concentration not given with the values) | Guanine nucleotide-binding protein G(i) subunit alpha-3 (Rattus norvegicus), P08753;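 active = replicate mean at 85% of control or lower, very high polarization wells dropped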;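 note: wells of about 15 µL received 100 nL stock; the first replicate is given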
A number is an active result; n = inactive. This is one part of a sample in which hits are shown more often than they occur.

Sequences of proteins named here, by UniProt entry; tags and fusion partners are left off.
Guanine nucleotide-binding protein G(i) subunit alpha-3 (Rattus norvegicus), P08753, UniProt P08753, whole entry, looked up: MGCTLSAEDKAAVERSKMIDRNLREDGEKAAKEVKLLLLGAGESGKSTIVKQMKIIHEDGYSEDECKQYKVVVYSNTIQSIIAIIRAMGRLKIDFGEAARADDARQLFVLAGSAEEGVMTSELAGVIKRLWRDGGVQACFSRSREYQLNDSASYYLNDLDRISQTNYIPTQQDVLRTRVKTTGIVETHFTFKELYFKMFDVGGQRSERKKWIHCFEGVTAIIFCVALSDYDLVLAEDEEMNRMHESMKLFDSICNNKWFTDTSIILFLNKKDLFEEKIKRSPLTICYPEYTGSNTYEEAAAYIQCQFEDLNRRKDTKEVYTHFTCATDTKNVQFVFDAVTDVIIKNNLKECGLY

SMILES	GIV Gai3 FP
Cc1n[nH]c(C)c1N1C(=O)c2cccc3c(N4CCCCC4)ccc(c23)C1=O	-6.8
O=C(OCCN1C(=O)c2cccc3c(N4CCCCC4)ccc(c23)C1=O)c1ccccc1[N+](=O)[O-]	n
Cc1cc(Cl)ccc1NS(=O)(=O)c1cc(-c2cc(C(F)(F)F)on2)sc1C	n
COc1cccc(C2c3[nH]c4ccccc4c3CCN2S(=O)(=O)c2ccc(C)cc2)c1 (stereo unspecified)	n
O=c1c(C=NCC2CCCO2)c(CSc2ccc(Cl)cc2)[nH]n1-c1nc2ccccc2s1 (stereo unspecified)	n
O=C(CN1Cc2ccccc2C1=O)Nc1cnc2ccccc2c1	n
O=c1oc2cc(O)ccc2cc1-c1nnc(NC2CCCCC2)s1	-31
O=c1oc2ccc3ccccc3c2cc1-c1nc(-c2cccs2)cs1	n
O=c1oc2cc(O)ccc2cc1-c1csnn1	n
Cc1ccc(-c2csc(-c3cc4ccccc4oc3=O)n2)cc1C	n
Cc1ccc(C)c(-c2csc(-c3cc4ccc(O)cc4oc3=O)n2)c1	n
O=c1oc2cc(O)ccc2cc1-c1nc(-c2ccc3ccccc3c2)cs1	-29
O=c1oc2ccccc2cc1-c1nc(-c2cccs2)cs1	11
COc1ccc2cc(-c3nc(-c4cccs4)cs3)c(=O)oc2c1	n
COc1cccc2cc(-c3nnc(NC4CCCCC4)s3)c(=O)oc12	n
Cc1nn(-c2ccccc2)c(C)c1CCc1nnc2sc(-c3ccc(F)cc3)nn12	n
CCOC(=O)c1cc2c(c(CSc3nc4ccccc4c(=O)n3NC(=O)c3ccc(OC)cc3)c1)OCOC2	n
COc1ccc(Nc2nc3ccc(C)cc3nc2Nc2ccc(OC)cc2)cc1	n
CCOC(=O)C1=C(C)N=c2s/c(=C\c3ccc(OC)c(O)c3)c(=O)n2C1c1ccc(SC)cc1 (stereo unspecified)	n
CC1CCC(NC(=O)C2CCN(c3nnc(-n4cccc4)s3)CC2)CC1 (stereo unspecified)	n
COc1cccc(NC(=O)c2ccnc(N3CCC(C(=O)NCCc4ccccc4)CC3)c2)c1	n
COc1ccccc1N1CCN(C(=O)C(CC(C)C)NC(=O)C2CCC(C)CC2)CC1 (stereo unspecified)	n
COc1ccccc1/C=C1\N=C(c2ccc(OC)c(OC)c2)N(c2ccc(Cl)cc2)C1=O	77
COc1ccccc1/C=C1\N=C(c2ccc(OC)c(OC)c2)N(c2ccc(Cl)c(Cl)c2)C1=O	n
COc1cccc(C2=N/C(=C/c3ccccc3OC)C(=O)N2c2ccc(OC)c(OC)c2)c1	n
SMILES	GIV Gai3 FP
COc1ccc(/C=C2\N=C(c3ccc(Cl)cc3)N(c3ccccc3Br)C2=O)cc1OC	67
COc1ccc(/C=C2\N=C(c3ccc(Cl)cc3)N(c3cc(Cl)ccc3C)C2=O)cc1OC	n
COc1cccc(C2=N/C(=C\c3ccccc3OC)C(=O)N2c2cccc(Cl)c2C)c1	n
COc1cccc(C2=N/C(=C\c3ccccc3OC)C(=O)N2c2ccc(C)c(F)c2)c1	61
COc1ccc(/C=C2\N=C(c3ccc(Cl)cc3)N(c3ccc(C)cc3C)C2=O)cc1OC	n
COc1ccccc1/C=C1\N=C(c2ccc(OC)c(OC)c2)N(c2ccc(C)c(C)c2)C1=O	n
CC(C)=CC(=O)Oc1ccc(Br)cc1	n
CC1(C)CC(=O)C2=C(C1)OC(N)=C(C#N)C2c1ccc(OCc2ccccc2)cc1 (stereo unspecified)	n
CC(Oc1cccc(C(F)(F)F)c1)c1ccnc(N)n1 (stereo unspecified)	n
CN1CCCc2cc(/C=C3\CCC(C4CCCC4)C3=O)ccc21 (stereo unspecified)	n
COc1cccc(/C=C2\CC/C(=C\c3cccc(OC)c3)C2=O)c1	n
CN1CCCc2cc(/C=C3\CC/C(=C/c4ccc5c(c4)N(C)CCC5)C3=O)ccc21	-75
Cc1nc(-c2ccc(C)c(-n3cc(C(=O)NCc4ccc(Cl)cc4)c(C)n3)c2)no1	n
CCc1onc(C)c1C1CCCN1Cc1ccc(OC)c(OC)c1 (stereo unspecified)	n
Cc1cccc2c(=O)c(N)c[nH]c12	n
Nc1ccc2c3c(cccc13)C(=O)C=C2	-30
Cn1c(=O)n(C)c2cc(N3CCCCC3)c(NC(=O)NCc3ccccc3)cc21	n
O=C(Cn1cc(S(=O)(=O)N2CCCC2)c(S(=O)(=O)N2CCCC2)c1)N1CCCCCC1	n
Cc1cccc(C)c1NC(=O)/C=C/c1cccs1	n
COc1ccc(C2=N/C(=C\c3coc4ccccc4c3=O)C(=O)O2)cc1Br	n
CN1C(N)=NC(=O)/C1=C/c1coc2ccccc2c1=O	n
N=C1/C(=C\c2coc3ccccc3c2=O)C(=O)N=C2SC=NN12	-55
COC(=O)C1C(c2ccc(O)cc2)C(C(=O)OC)S(=O)(=O)C(=NNc2ccc(OC)cc2[N+](=O)[O-])S1(=O)=O (stereo unspecified)	n
CC(C)CCNC(=O)N1CCC(N2CCN(Cc3ccccc3)C(=O)C2=O)CC1	n
O=c1c2c(n3nnnc3n1Cc1ccccc1)-c1ccccc1CC21CCCCC1	n
SMILES	GIV Gai3 FP
N#CC(C#N)C(C#N)(C#N)C1CCCC1=O (stereo unspecified)	68
CC(NC(=O)Cc1csc(NC(=O)c2ccccc2)n1)c1ccccc1 (stereo unspecified)	n
O=C1c2ccccc2C(=O)c2cc(NS(=O)(=O)c3ccc4c(c3)C(=O)c3ccccc3C4=O)ccc21	n
Cc1ccc(Cl)cc1NC(=O)c1ccc(N2CC3CC(C2)c2cccc(=O)n2C3)c(NC(=O)c2c(F)cccc2F)c1 (stereo unspecified)	n
C=CCNc1nc2c(C)cccn2c(=O)c1/C=C1\SC(=S)NC1=O	-42
Cn1cccc1/C=C1\SC(=S)NC1=O	n
Cc1cccn2c(=O)c(/C=C3\SC(=S)N(Cc4ccccc4)C3=O)c(NCc3ccco3)nc12	n
O=c1n(Cc2cc(F)cc(F)c2)nc2c(S(=O)(=O)N3CCCC3)cccn12	n
Cc1ccc(-c2nc(CSCC(=O)NC(C)(C)C)no2)cc1	n
CC(C)Oc1ccccc1C1Nc2ccccc2NC2=C1C(=O)CC(c1ccccc1Cl)C2 (stereo unspecified)	n
Cc1ccc(/C=C2/CC(C)C/C(=C\c3ccc(C)o3)C2=O)o1 (stereo unspecified)	n
Cc1ccc(/C=C2\CCCc3ccccc3C2=O)o1	n
Cc1ccc(/C=C2\CC/C(=C\c3ccc(C)o3)C2=O)o1	-75
O=c1c2ccccc2nc2c(-c3nc(-c4ccc5c(c4)OCO5)no3)cccn12	58
O=c1c2ccccc2nc2c(-c3nc(-c4ccccc4)no3)cccn12	n
CCOc1ccc(-c2noc(-c3cccn4c(=O)c5ccccc5nc34)n2)cc1OC	n
CCSc1nc2ccc(NS(=O)(=O)c3cccc(Cl)c3)cc2s1	n
O=C1CSc2ccc(S(=O)(=O)NCCC3=CCCCC3)cc2N1	n
CC1(C)CCc2cc(CN3CCN(c4ccc(C(F)(F)F)cn4)CC3)ccc2O1	n
Oc1c(C=NC2CCCCC2)[nH]c2ccc(Br)c(Cl)c12	-64
Oc1c(C=NCc2ccccc2)[nH]c2ccc(Br)c(Cl)c12	n
COc1ccc(C2CC(=O)C(C=NC3CCCC3)=C(O)C2)cc1 (stereo unspecified)	n
CC(=O)Nc1ccc(Br)cc1-c1nc2cc3ccccc3cc2[nH]c1=O	n
CCN(CC)c1ccc2nc3c(=O)n(C)c(=O)n(C)c3nc2c1	-26
Cc1c(NC(=O)C(F)(F)F)ccc2nc3c(=O)n(C)c(=O)n(C)c3nc12	n
CCC(=O)Nc1ccc2nc3c(=O)n(C)c(=O)n(C)c3nc2c1	n

Screening data (PubChem)
